# Reference: patent publication US20100183604A1, “PREVENTIVE/REMEDY FOR CANCER” (TAKEDA PHARMACEUTICAL COMPANY LIMITED, priority 2007, published 2010)
# Legend:
# [1] = tested on: BT474 cells highly sensitive to trastuzumab; assay: Viable cell count after HER2 inhibitor addition (no siRNA), high sensitive cell line; assay type: cell-based, human; details: 3 μg/mL vs without addition, 5 days
# Method: (§1) After culture for 5 days at 37° C., 5% CO2, the number of viable cells was counted.
# [2] = tested on: trastuzumab low sensitive BT-474 cells; assay: Viable cell count after HER2 inhibitor addition (no siRNA), low sensitive cell line; assay type: cell-based, human; details: 3 μg/mL vs without addition, 5 days
# Method: as §1
substance,measurement,setting,value
"trastuzumab: anti-HER2 antibody (trade mark herceptin), conventional HER2 inhibitor",growth suppression,[1],about 50%
same,growth suppression,[2],about 10%
